# AlphaSeq binding of Ab-14 heavy chain variants to a spike HR2 peptide

Antigen: PDVDLGDISGINAS, a 14-residue peptide of the SARS-CoV-2 spike HR2 region.

Each scFv is VH, a 15-residue (Gly4Ser)3 linker, VL, as in the parent Ab-14, and differs from it in the CDRs of the heavy chain only.
VH: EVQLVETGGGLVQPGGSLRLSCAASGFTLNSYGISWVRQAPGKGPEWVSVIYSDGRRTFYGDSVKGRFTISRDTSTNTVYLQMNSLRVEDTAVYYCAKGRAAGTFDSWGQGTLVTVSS
VL: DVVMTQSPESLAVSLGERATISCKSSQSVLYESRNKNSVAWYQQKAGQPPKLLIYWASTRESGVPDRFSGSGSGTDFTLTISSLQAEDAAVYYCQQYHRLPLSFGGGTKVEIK

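Phage display of a naive human antibody library on the peptide gave the parent. The library (AAYL49) carries one to three amino acid substitutions per variant, with no insertions or deletions. In AlphaSeq, yeast of one mating type display the scFv and yeast of the other type display the target. Pairs that bind mate more often; barcode pairs of the diploids are counted by sequencing. Scores were corrected for input abundance and mapped to Kd with protein pairs of known affinity run in the same pool. Mating was done three times.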

The parent's heavy chain CDRs are GFTLNSYGIS, VIYSDGRRTFYGDSVK, GRAAGTFDS; each variant's own CDRs replace them letter for letter. Scale: log10 of Kd in nM, estimated from mating counts; low values are strong binders. An entry "ND" has no value in the source: the pair was not observed among the diploids in that replicate. This suggests poor binding but is not conclusive. Three control strains display no target. For library AAYL49, 15% of the pairings with them gave a signal, with a median of 4.06 and one signal in twenty below 2.83, so weak values seen in few replicates may be background. Also given: how often the same scFv was detected with the empty control strains, with their mean in brackets.

{"CDR-H1": "GITLNSYGIS", "CDR-H2": "VIYSDGRRTFYGDDVH", "CDR-H3": "GRAAGTFDS", "replicates, log10 nM": "3.51 / 4.79 / ND", "empty controls": "1 of 9 (5.28)"}
{"CDR-H1": "GFVLNSCGIS", "CDR-H2": "VIYSDGRRTFYGDSVH", "CDR-H3": "GRAAGTFDS", "replicates, log10 nM": "ND / ND / ND", "empty controls": "0 of 9"}
{"CDR-H1": "GFTPNSYGIS", "CDR-H2": "VIYEDGRRTFYGDSVK", "CDR-H3": "GRAAGTFDP", "replicates, log10 nM": "ND / ND / ND", "empty controls": "1 of 9 (3.31)"}
{"CDR-H1": "GFWLNSYFIS", "CDR-H2": "VTYSDGRRTFYGDSVK", "CDR-H3": "GRAAGTFDS", "replicates, log10 nM": "ND / ND / ND", "empty controls": "2 of 9 (3.35)"}
{"CDR-H1": "GFTINSYGIS", "CDR-H2": "VIYSDGRRTFYGHSVK", "CDR-H3": "GRALGTFDS", "replicates, log10 nM": "3.96 / 3.72 / 4.24", "empty controls": "1 of 9 (3.73)"}
{"CDR-H1": "GFTLPSYGIS", "CDR-H2": "VIYSDGRRTFYGDSVK", "CDR-H3": "KRAAETFDS", "replicates, log10 nM": "ND / ND / ND", "empty controls": "0 of 9"}
{"CDR-H1": "GFTLNSYGIS", "CDR-H2": "VIYSDGRRTFYGDSKK", "CDR-H3": "GRAAGTFAD", "replicates, log10 nM": "4.55 / 3.32 / ND", "empty controls": "0 of 9"}
{"CDR-H1": "GFTLNSYGIS", "CDR-H2": "VIYYDGRRTFYGDSVL", "CDR-H3": "GRAAGTFDS", "replicates, log10 nM": "ND / ND / ND", "empty controls": "3 of 9 (4.62)"}
{"CDR-H1": "GFTLNSYGIS", "CDR-H2": "VIYRDGRRTDYGDSVI", "CDR-H3": "GRAAGTFDS", "replicates, log10 nM": "4.88 / ND / 3.86", "empty controls": "0 of 9"}
{"CDR-H1": "GFTLNSYGIS", "CDR-H2": "VIYSDGRRTFYGTSTK", "CDR-H3": "PRAAGTFDS", "replicates, log10 nM": "ND / ND / ND", "empty controls": "0 of 9"}
{"CDR-H1": "GFTLNSYGIS", "CDR-H2": "VIYDDGRRTYYGDSVK", "CDR-H3": "GRAAGTFDM", "replicates, log10 nM": "ND / ND / ND", "empty controls": "1 of 9 (3.90)"}
{"CDR-H1": "GFGLNSYGIS", "CDR-H2": "VIYSDGRRTFYGDSVK", "CDR-H3": "GRAAGTCDS", "replicates, log10 nM": "5.11 / 5.53 / 4.13", "empty controls": "3 of 9 (4.31)"}
{"CDR-H1": "GFTLNSYGIS", "CDR-H2": "VICSDGRRTFYGDSVK", "CDR-H3": "GRQAGTFDG", "replicates, log10 nM": "ND / ND / ND", "empty controls": "0 of 9"}
{"CDR-H1": "GFTLNSYDIS", "CDR-H2": "VIYSDARRTFYWDSVK", "CDR-H3": "GRAAGTFDS", "replicates, log10 nM": "ND / ND / ND", "empty controls": "0 of 9"}
{"CDR-H1": "GATLNSYGIS", "CDR-H2": "VIYSDGRRTFYGDSVC", "CDR-H3": "GRAAGTFDS", "replicates, log10 nM": "3.07 / 2.49 / 4.42", "empty controls": "1 of 9 (3.13)"}
{"CDR-H1": "GSTHNSYGIS", "CDR-H2": "VIYSDGRRTFYGDHVK", "CDR-H3": "GRAAGTFDS", "replicates, log10 nM": "ND / ND / ND", "empty controls": "0 of 9"}
{"CDR-H1": "VFTLNSLGIS", "CDR-H2": "VIYSDGRRTFYDDSVK", "CDR-H3": "GRAAGTFDS", "replicates, log10 nM": "4.55 / ND / ND", "empty controls": "2 of 9 (4.17)"}
{"CDR-H1": "GFTLNSYGHS", "CDR-H2": "VIYSDGSRTFYGDYVK", "CDR-H3": "GRAAGTFDS", "replicates, log10 nM": "ND / ND / ND", "empty controls": "1 of 9 (4.77)"}
{"CDR-H1": "GFTLNSYGIS", "CDR-H2": "VFYSDGRRTFLGDSVK", "CDR-H3": "GRAHGTFDS", "replicates, log10 nM": "ND / ND / ND", "empty controls": "0 of 9"}
{"CDR-H1": "GFTLNSYGIS", "CDR-H2": "VIYSDGRRTYYGDSVK", "CDR-H3": "GRAAGTCDS", "replicates, log10 nM": "0.64 / 0.91 / 0.97", "empty controls": "2 of 9 (3.82)"}
{"CDR-H1": "GFTLNSYGIF", "CDR-H2": "VIYSDGRRTFYGDSVK", "CDR-H3": "GRAAGDFDC", "replicates, log10 nM": "ND / ND / ND", "empty controls": "0 of 9"}
{"CDR-H1": "GFTLNSYGIS", "CDR-H2": "VHYSDGRRTFYGDSVS", "CDR-H3": "GRAAGTFRS", "replicates, log10 nM": "ND / ND / ND", "empty controls": "1 of 9 (2.29)"}
{"CDR-H1": "GFTLWSYGIN", "CDR-H2": "VIYSDGRRTFYGDSVK", "CDR-H3": "GRAAGTFDF", "replicates, log10 nM": "ND / ND / ND", "empty controls": "0 of 9"}
{"CDR-H1": "GFTLNSYWIS", "CDR-H2": "TIYSDGRRTFYGDSVK", "CDR-H3": "GRAAGTFVS", "replicates, log10 nM": "ND / ND / 2.63", "empty controls": "0 of 9"}
{"CDR-H1": "GRALNSYDIS", "CDR-H2": "VIYSDGRRTFYGDSVK", "CDR-H3": "GRAAGTFDS", "replicates, log10 nM": "ND / ND / ND", "empty controls": "6 of 9 (3.72)"}
{"CDR-H1": "GFTLNSYGIS", "CDR-H2": "VIYSDGRRTFYGDSVW", "CDR-H3": "GRAAGTFDS", "replicates, log10 nM": "2.96 / 2.34 / 2.44", "empty controls": "0 of 9"}
{"CDR-H1": "GFCLNSYGIS", "CDR-H2": "VIYTDGRRTFYGDSVK", "CDR-H3": "GRAKGTFDS", "replicates, log10 nM": "5.25 / 4.63 / ND", "empty controls": "3 of 9 (4.76)"}
{"CDR-H1": "GFTLNSYGIS", "CDR-H2": "VIYSDGRRTFYDDSVK", "CDR-H3": "GRAAGTFDP", "replicates, log10 nM": "ND / ND / ND", "empty controls": "0 of 9"}
{"CDR-H1": "GFTLNSFGIS", "CDR-H2": "VIYSDGRRTFYGDSVK", "CDR-H3": "GRAAGTWDF", "replicates, log10 nM": "ND / ND / ND", "empty controls": "0 of 9"}
{"CDR-H1": "GFTTNSYDIS", "CDR-H2": "VIYSDGRRTFYGDSVK", "CDR-H3": "GRAAGTFKS", "replicates, log10 nM": "ND / 4.43 / ND", "empty controls": "2 of 9 (4.73)"}
{"CDR-H1": "GFTLISKGIS", "CDR-H2": "VRYSDGRRTFYGDSVK", "CDR-H3": "GRAAGTFDS", "replicates, log10 nM": "4.15 / 4.13 / ND", "empty controls": "2 of 9 (4.51)"}
{"CDR-H1": "GFTLNETGIS", "CDR-H2": "VIYSDGRRTFYEDSVK", "CDR-H3": "GRAAGTFDS", "replicates, log10 nM": "ND / 3.24 / ND", "empty controls": "6 of 9 (3.81)"}

Repeated from above, the 2 best binders with a signal in all replicates:

CDR-H1	CDR-H2	CDR-H3	replicates, log10 nM	empty controls
GFTLNSYGIS	VIYSDGRRTYYGDSVK	GRAAGTCDS	0.64 / 0.91 / 0.97	2 of 9 (3.82)
GFTLNSYGIS	VIYSDGRRTFYGDSVW	GRAAGTFDS	2.96 / 2.34 / 2.44	0 of 9

Data: MIT Lincoln Laboratory AlphaSeq set, Engelhart et al. 2022, doi:10.1038/s41597-022-01779-4, as distributed in FLAb.